Earlier results in US12611425B2, “Compositions and methods for treatment and prevention of pathogens” (WIAB WATER INNOVATION AB, priority 2022, dated 2026).
Read-outs that look alike come from different tables or passages of the source.

Conditions: cited from earlier work

chlorous acid
standard reduction potential (basic pH): +0.78
standard reduction potential (low pH): 1.64
